From patent US9388170B2, “Substituted aminoquinazolines useful as kinases inhibitors” (TELIGENE LTD., priority 2012, dated 2016)

Columns and labels:
[1] = tested on: A431; assay: Cell proliferation assay (MTT), A431; assay type: cell-based; conditions: Homo sapiens, A-431, A431 cells, 72 hours
Procedure: (§1) A Representative Number of Compounds were Assayed Against Different Cancer Cell Lines Such as A431, BT474, NCI—H1975, SK—OV-3, SK—Br-3 and A549 Using the Cell Proliferation Assays:
(§2) 1. 5×10^3 cells per well in 100 μl of medium were seeded in 96-well plate, here the medium contained 5% FBS
(§3) 2. 24 hours later, 100 μl fresh medium was added with various concentrations of compounds into each well, while the medium here was free of FBS.
(§4) 3. After the cells were treated with compounds for 72 hours, 20 μl MTT (5 mg/ml) was added into each well, and then the assay plate was incubated at 37° C. for 4 more hours.
(§5) 4. The assay plate was centrifuged at 800 g for 10 min. The medium was aspirated, 150 μl DMSO was added into each well. The plate was gently shaken for 10 min.
(§6) 5. The absorbance at 570 nm was measured on the plate reader.

[2] = tested on: BT474; assay: Cell proliferation assay (MTT), BT474; assay type: cell-based; conditions: Homo sapiens, BT-474, BT474 cells, 72 hours
Procedure: as §1, §2, §3, §4, §5, §6

Q: What does the source list for `C#Cc1cccc(Nc2ncnc3cc(O[C@H]4CCOC4)c(NC(=O)/C=C/CN(CC)CC)cc23)c1` [Compound 20, (S,E)-4-(diethylamino)-N-(4-((3-ethynylphenyl)amino)-7-((tetrahydrofuran-3-yl)oxy)quinazolin-6-yl)but-2-enamide]?
A: IC50 [1]: 1790 nM; IC50 [2]: 6.8 nM
